Tested on: suppressive activity of CD4+CD25+ regulatory T cells (Treg) on Teff proliferation
Assay: Inhibition assay (co-culturing of Teff with Treg), [3H]-thymidine incorporation
Format: cell-based, mouse
Description: (xvi) Activation of CD4^+CD25^+ regulatory T cells. Purified regulatory T cells (Treg; 0.5×10^6 cells/mL) were activated in RPMI medium supplemented with L-glutamine (2 mM), 2-mercaptoethanol (5×10^−5 M), sodium pyruvate (1 mM), penicillin (100 IU/mL), streptomycin (100 μg/mL), nonessential amino acids (1 mL/100 mL), and autologous serum 2% (vol/vol) in the presence of mrIL-2 (5 ng/mL) and soluble anti-CD3 antibodies (1 ng/mL). Irradiated (2500 rad) splenocytes (1.5×10^6 cells/mL) were added to the culture. Cells were activated for 24 or 96 h. In some of the 96-h experiments, fresh dopamine was added to the culture every 24 h during activation.
(xvii) Inhibition assay (co-culturing of Teff with Treg). Naïve effector T cells (Teff; 50×10^3 cells/well) were co-cultured with decreasing numbers of activated Treg for 72 h in 96-well flat-bottomed plates in the presence of irradiated splenocytes (10^6/mL) supplemented with anti-CD3 antibodies. [^3H]-thymidine (1 μCi) was added for the last 16 h of culture. After the cells were harvested, their [^3H]-thymidine content was analyzed by the use of […].
In this experiment, we examined whether dopamine acts on Treg and alters their suppressive effect on Teff. Suppression of proliferation of Teff, assayed by [^3H]thymidine incorporation, was used as a measure of suppressive effect of Treg (Thornton and Shevach, 1998).
Shevach, 1998, 2000). […]

CCCN1CCC[C@@H]2Cc3n[nH]cc3C[C@H]21 [quinpirole]
Effect on suppressive activity of Treg, compound alone: had no effect
Effect on the dopamine effect on Treg suppressive activity: did not alter the effect of dopamine
